## Binding of CDR-mutated scFvs to a peptide of the spike HR2 region

From the AlphaSeq antibody data of Engelhart et al. 2022 (doi:10.1038/s41597-022-01779-4), copy in the FLAb collection.

Target peptide (SARS-CoV-2 spike, HR2 region): PDVDLGDISGINAS

Ab-91 is the parent antibody, in scFv form: VL, then a (GGGGS)3 linker, then VH. The light chain is unchanged in all variants.
VL: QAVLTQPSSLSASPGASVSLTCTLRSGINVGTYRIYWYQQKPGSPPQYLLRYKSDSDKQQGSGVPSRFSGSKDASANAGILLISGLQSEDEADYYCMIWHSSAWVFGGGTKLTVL
VH: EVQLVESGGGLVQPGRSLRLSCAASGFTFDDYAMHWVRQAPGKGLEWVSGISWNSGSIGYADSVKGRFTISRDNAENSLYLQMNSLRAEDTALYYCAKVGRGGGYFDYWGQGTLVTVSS

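The library (AAYL51) carries one to three amino acid substitutions per variant, with no insertions or deletions. In AlphaSeq, yeast of one mating type display the scFv and yeast of the other type display the target. The frequency of each diploid, read from paired DNA barcodes, reflects how well the two displayed proteins bind. Each replicate has its own calibration line, from reference interactions of the BCL2 family. The assay was run in three technical replicates.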

Each variant is given by its three heavy chain CDRs, as the data file delimits them; those of the parent are GFTFDDYAMH, GISWNSGSIGYADSVK, VGRGGGYFDY.
Values are apparent Kd, the geometric mean of the replicates that gave a signal; lower means stronger binding.
"nd" marks a missing value. The strain was present, yet no cells mated with the target were sequenced in any replicate, which points to weak or no binding.
Three control strains display no target. For library AAYL51, 21% of the pairings with them gave a signal, with a median of 34 µM and one signal in twenty below 1.8 µM, so weak values seen in few replicates may be background.

For GFTFDDYAMH, GLSWNSGSIGYADSVK, VQRGGVYFDY, the assay gave nd (0 of 3 replicates).
For GFTFDDYAIH, GISRNVGSIGYADSVK, VGRGGGYFDY, the assay gave nd (0 of 3 replicates).
For GFTFDDYAMH, GHSINSGSIGYADSVK, VGRGGGYFDI, the assay gave 110 µM (1 of 3 replicates).
For GFHFDDYAMH, GISWNSNSIGYADSVK, VGGGGGYFDY, the assay gave 21 nM (3 of 3 replicates).
For GFTFDDYARH, GKSWNSGSIGYADSVK, VGRGGGYFDY, the assay gave 62 µM (1 of 3 replicates).
For WFHFDDYAMH, GISWNSGSIGPADSVK, VGRGGGYFDY, the assay gave 11 µM (3 of 3 replicates).
For GFTFDNYAMH, GISWNSGSIGYVDSVK, VGRGGGYFDY, the assay gave 5.1 nM (3 of 3 replicates).
For GFTFLHYAMH, GISWNSGSIGYADDVK, VGRGGGYFDY, the assay gave 40 nM (3 of 3 replicates).
For GFTFDDPAMH, GISWNSGSIGYADSVK, VCRGGGYFDY, the assay gave 28 µM (3 of 3 replicates).
For GFTFDDYAMH, GDSWNSGSIGYADSVT, VGRGGGYFDY, the assay gave nd (0 of 3 replicates).
For GFTFDDVAMH, EISWNSGSIGYAPSVK, VGRGGGYFDY, the assay gave 140 µM (1 of 3 replicates).
For GFTFDDYAMH, GISWNSGSIGRAESVK, CGRGGGYFDY, the assay gave 110 µM (1 of 3 replicates).
For GFTFDDYAMH, GISWNSGPIHYADSVK, NGRGGGYFDY, the assay gave 150 µM (2 of 3 replicates).
For GFTFDDYAMW, GISWNSGHIGYADSVK, VGRGGGYFTY, the assay gave 1.3 µM (1 of 3 replicates).
For GFTFDDYAMH, GISWNSWSIGYADEVK, VGRGGGYFDT, the assay gave 3.1 nM (3 of 3 replicates).
For GFTFDDYAMH, GISWNSTSIGYADSVK, VGRGGGGFDY, the assay gave nd (0 of 3 replicates).
For GFTFDDYAMH, GISWNSGDIGYADSCK, VGRGFGYFDY, the assay gave nd (0 of 3 replicates).
For GFTFDHYAMH, GISWNSGSIGYAWSVK, VGRGGGYFDY, the assay gave nd (0 of 3 replicates).
For GMTFDDYAMH, GISWNSGSIGYMDSVK, VGRGGGYFDY, the assay gave nd (0 of 3 replicates).
For GFTFDDMAMH, GISWNSRSIGYADSVK, VGRRGGYFDY, the assay gave nd (0 of 3 replicates).

The remaining entries, values ahead:

Result 2.6 nM (3 of 3 replicates), variant GFTFDDYAMH, GISWNSGSIGYADSVK, VWRGWGYFDY.
Result nd (0 of 3 replicates), variant GFTCDDYAQH, GISWNSGSIGYYDSVK, VGRGGGYFDY.
Result nd (0 of 3 replicates), variant GFTFDYYAMH, GIVWNSGSIGWADSVK, VGRGGGYFDY.
Result 3.5 µM (3 of 3 replicates), variant GFIFDDYAMH, GISWNSGSDGYADSVK, VGRGCGYFDY.
Result nd (0 of 3 replicates), variant GFTFDDYAPH, GISWNSGSIGYADRVK, VGRGGGYFDK.
Result nd (0 of 3 replicates), variant GFTFDDYAMH, GIGWNSGSIGYADSVA, VGRGGGYNDY.
Result 230 µM (3 of 3 replicates), variant HFSFDDYAMH, GISWNSYSIGYADSVK, VGRGGGYFDY.
Result nd (0 of 3 replicates), variant GFTFDDYAPH, GISWNSGSIGYADSDK, AGRGGGYFDY.
Result nd (0 of 3 replicates), variant GFTTDDYAMP, GISWKSGSIGYADSVK, VGRGGGYFDY.
Result 170 µM (2 of 3 replicates), variant SFTFDDYAMH, GTSWNSGSIGYADSVK, VGRGGGVFDY.
Result nd (0 of 3 replicates), variant GFTFDDYAMH, GMSWNSGSIGYAISVK, VGRGGHYFDY.
Result nd (0 of 3 replicates), variant GFTFDDYAMH, GIKWNSGSILYADSVK, TGRGGGYFDY.
Result nd (0 of 3 replicates), variant GFTFDDYAMH, GISNNSGSIGYADSVK, VGGGGGYFVY.
Result 20 nM (3 of 3 replicates), variant GFLFPDYAMH, GISWNSGSIGYADSVK, VGRGGEYFDY.
Result 10 µM (1 of 3 replicates), variant WFTFDDYAMH, GISWNSGSIGYADPVK, VGRGGGYGDY.
Result 79 nM (3 of 3 replicates), variant GFTFDDYAMH, GISWNSGSIGYADSVK, VWRGGGMFIY.
Result nd (0 of 3 replicates), variant GFTFDDYAMH, GIMWNSGSIGYADSCK, VGRGGHYFDY.
Result nd (0 of 3 replicates), variant GFTFDDYKMH, CESWNSGSIGYADSVK, VGRGGGYFDY.
Result 450 nM (3 of 3 replicates), variant GYTFMDYAMH, GISWNSGSIGYADSVK, VGRGGGYPDY.
Result 120 µM (2 of 3 replicates), variant GFTFMDYAMH, GISWNSGSIGYADSVK, RGRGGCYFDY.
Result 62 µM (2 of 3 replicates), variant GFTFDDYAMT, GIDWNSGLIGYADSVK, VGRGGGYFDY.

Again, the first 5 entries without any signal:

CDR-H1	CDR-H2	CDR-H3	apparent Kd	seen in
GFTFDDYAMH	GLSWNSGSIGYADSVK	VQRGGVYFDY	nd	0/3
GFTFDDYAIH	GISRNVGSIGYADSVK	VGRGGGYFDY	nd	0/3
GFTFDDYAMH	GDSWNSGSIGYADSVT	VGRGGGYFDY	nd	0/3
GFTFDDYAMH	GISWNSTSIGYADSVK	VGRGGGGFDY	nd	0/3
GFTFDDYAMH	GISWNSGDIGYADSCK	VGRGFGYFDY	nd	0/3